Apparent affinities of Ab-95 variants for a coronavirus HR2 peptide

Target: peptide PDVDLGDISGINAS, taken from heptad repeat 2 (HR2) of SARS-CoV-2 spike.

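Phage display of a naive human antibody library on the peptide gave the parent. AAYL52 was designed without a model: most single CDR substitutions and a random sample of double and triple ones. Affinity was read by AlphaSeq, a pooled yeast mating assay with surface-displayed partners. The frequency of each diploid, read from paired DNA barcodes, reflects how well the two displayed proteins bind. Read counts were normalised to the haploid input and turned into Kd by a linear fit to BCL2-family pairs of known affinity, for each replicate. There are three technical replicates.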

Each scFv is VH, a 15-residue (Gly4Ser)3 linker, VL, as in the parent Ab-95, and differs from it in the CDRs of the light chain only.
VH: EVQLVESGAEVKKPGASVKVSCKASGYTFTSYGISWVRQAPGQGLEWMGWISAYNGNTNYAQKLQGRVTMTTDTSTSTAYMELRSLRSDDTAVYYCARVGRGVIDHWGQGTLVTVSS
VL: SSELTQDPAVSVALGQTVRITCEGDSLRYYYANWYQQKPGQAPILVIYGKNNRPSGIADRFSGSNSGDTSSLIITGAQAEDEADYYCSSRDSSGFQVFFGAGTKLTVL

Sequences are complete VL domains. Every variant below is changed at F98 of the VL (sequential numbering). Values are log10 of the apparent Kd in nM; lower means stronger binding. "nd" means that the variant was in the library but no mating with the target was seen in that replicate; the authors take this as a sign of poor binding, and no number exists. Empty control strains, which show no peptide, gave a signal in 28% of pairings with library AAYL52; the median was 3.91 and 95% of these signals were weaker than 2.90. No background was subtracted.

With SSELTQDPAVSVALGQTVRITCEGDSLRYYYCNWYQQKPGQAPILVIYGKNNRPSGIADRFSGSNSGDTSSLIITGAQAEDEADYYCSSRASSGFQVAFGAGTKLTVL the result was 2.69, 3.25, 2.53. With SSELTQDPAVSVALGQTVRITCEGDSWRYYYANWYQQKPGQAPILVIYGKNNLPSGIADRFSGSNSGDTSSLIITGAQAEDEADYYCSSRDSSGFQVLFGAGTKLTVL the result was 4.37, 4.11, nd. For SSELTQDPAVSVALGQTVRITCEGDSLRRYYANWYQQKPGQAPILVIYGKNNRPSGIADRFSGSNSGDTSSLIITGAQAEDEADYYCSSRDSSGFQVSFGAGTKLTVL, the assay gave 2.56, 3.13, 2.90. With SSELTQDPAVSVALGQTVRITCEGDSLRYYYANWYQQKPGQAPILVIYGKNNRPSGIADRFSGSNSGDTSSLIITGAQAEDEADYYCSSHISSGFQVKFGAGTKLTVL the result was nd, nd, nd. With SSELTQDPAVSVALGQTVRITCEGDGLRYYYANWYQQKPGQAPILVIYGKNNRPSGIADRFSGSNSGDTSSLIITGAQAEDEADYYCSSRDSSGFQKHFGAGTKLTVL the result was 2.24, 2.30, 1.05. Variant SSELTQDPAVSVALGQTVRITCEGDSLRYYYANWYQQKPGQAPILVIYNKGNRPSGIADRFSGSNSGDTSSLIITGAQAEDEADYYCSSRDSSGFQVCFGAGTKLTVL gave nd, 2.88, nd. Variant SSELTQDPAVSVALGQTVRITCEGDSLRYYYANWYQQKPGQAPILVIYGWNNRPSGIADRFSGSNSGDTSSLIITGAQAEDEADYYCSSRDSSWFQVQFGAGTKLTVL showed 3.87, nd, nd.

For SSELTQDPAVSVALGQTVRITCEGWSLRVYYANWYQQKPGQAPILVIYGKNNRPSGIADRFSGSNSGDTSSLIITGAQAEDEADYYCSSRDSSGFQVEFGAGTKLTVL, the assay gave 4.66, nd, nd. Variant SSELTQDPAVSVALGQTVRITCEGDSLRIYYANWYQQKPGQAPILVIYGKNNRPWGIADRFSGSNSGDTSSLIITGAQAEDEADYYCSSRDSSGFQVYFGAGTKLTVL gave 5.06, 3.89, 2.67. Variant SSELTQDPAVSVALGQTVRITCEGDSLRYYYANWYQQKPGQAPILVIYGKNNRVSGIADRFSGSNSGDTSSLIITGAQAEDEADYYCSIRDSSGFQVLFGAGTKLTVL showed 2.37, 2.56, 3.51. With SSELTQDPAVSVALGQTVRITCEGDSLRYYYANWYQQKPGQAPILVIYGCNNRPNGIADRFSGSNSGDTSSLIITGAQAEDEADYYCSSRDSSGFQVHFGAGTKLTVL the result was 3.89, 3.90, 4.30. Variant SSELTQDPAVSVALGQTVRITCEGDSLRYYYANWYQQKPGQAPILVIYGKNNRPSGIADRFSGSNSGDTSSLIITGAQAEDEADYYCSIRDSSGFQVGFGAGTKLTVL gave 4.14, 3.60, nd. For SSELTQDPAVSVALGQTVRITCEGDSLRLYYANWYQQKPGQAPILVIYGKGNRPSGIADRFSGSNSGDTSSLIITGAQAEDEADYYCSSRDSSGFQVGFGAGTKLTVL, the assay gave 3.44, 3.65, nd. Variant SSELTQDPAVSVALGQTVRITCEGDSLRYYYANWYQQKPGQAPILVIYTKNNRPSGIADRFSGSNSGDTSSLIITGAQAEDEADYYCSSYDSSGFQVAFGAGTKLTVL showed 4.88, nd, nd.

For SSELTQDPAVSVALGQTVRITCEGDSLRYYYANWYQQKPGQAPILVIYGKNNRPSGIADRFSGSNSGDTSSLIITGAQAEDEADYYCGSRDSSGFQNMFGAGTKLTVL, the assay gave nd, nd, nd. With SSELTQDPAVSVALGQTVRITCEGDSLRYYYANWYQQKPGQAPILVIYGKNNMPFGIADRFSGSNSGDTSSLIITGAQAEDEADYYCSSRDSSGFQVWFGAGTKLTVL the result was nd, 4.28, 3.25. Variant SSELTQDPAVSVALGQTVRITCEGDSLRYYYINWYQQKPGQAPILVIYGKNNRPSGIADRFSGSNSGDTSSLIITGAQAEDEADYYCSRRDSSGFQVSFGAGTKLTVL showed nd, nd, nd. With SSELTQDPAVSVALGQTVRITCEGDSLRYYYANWYQQKPGQAPILVIYGKNNRPSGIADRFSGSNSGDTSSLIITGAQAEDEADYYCSSKDSSGFQLVFGAGTKLTVL the result was 3.39, 3.29, 3.81. Variant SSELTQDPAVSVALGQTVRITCEGDSLRYYYANWYQQKPGQAPILVIYGKNNMPSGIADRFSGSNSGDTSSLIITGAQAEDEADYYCNSRDSSGFQVNFGAGTKLTVL showed nd, 3.77, nd.

Data: MIT Lincoln Laboratory AlphaSeq set, Engelhart et al. 2022, doi:10.1038/s41597-022-01779-4, as distributed in FLAb.